# Source: PubChem BioAssay AID463165 (Johns Hopkins Ion Channel Center, 2010)
# Chains of the proteins cited; added tags and fusions are not shown.
# UniProt P49798, whole entry: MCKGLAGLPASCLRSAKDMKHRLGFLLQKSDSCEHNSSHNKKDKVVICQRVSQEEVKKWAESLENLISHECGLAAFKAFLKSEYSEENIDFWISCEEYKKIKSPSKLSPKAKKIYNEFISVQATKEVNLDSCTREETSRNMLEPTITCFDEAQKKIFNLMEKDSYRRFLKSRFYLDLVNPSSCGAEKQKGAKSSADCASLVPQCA
# The list shows a part of the results, in another mix than the full data. Some results for these compounds are left out of this collection, so the calls shown say nothing about other tests. Calls of active or inactive are those of the source.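 Rule for the calls: active = B-score, a plate-corrected calcium signal, over three deviations above library mean, with baseline fluorescence within five deviations of library mean; inactive = the rest.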
# Target: Regulator of G-protein signaling 4 (Homo sapiens) (UniProt P49798)
# Assay: blockers of RGS4 function in M3R calcium signaling – cell-based, HEK293 M3R inducible RGS4, calcium flux, primary screen (AID 463165);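 note: RGS4 expression induced by doxycycline in cells with stable M3 receptor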
# Conditions: Fluo-4 calcium flux, at 10 µM, triggered by carbachol at its EC20
row,SMILES,outcome
1,CC(C)Oc1ccc(C(=O)NCC2(N(C)C)CCCCC2)cc1,inactive
2,CN(C)c1cccc(C(=O)NCC2(N(C)C)CCCCC2)c1,inactive
3,COc1ccc(Br)c(C(=O)NCC2(N3CCCCC3)CCCCC2)c1,inactive
4,O=C(OC1CN2CCC1CC2)C(CO)(c1ccccc1)c1ccccc1 (centres undefined),inactive
5,O=C(NCC1(N2CCCCC2)CCCCC1)c1cccc(Cl)c1,inactive
6,COc1cccc(C(=O)NCC2(N3CCCCC3)CCCCC2)c1,inactive
7,COc1ccc(Cl)cc1C(=O)NCC1(N(C)C)CCCCC1,inactive
8,COc1cc(C(=O)NCC2(N(C)C)CCCCC2)c([N+](=O)[O-])cc1OC,inactive
9,CN(C)C1(CNC(=O)c2ccc(Br)cc2)CCCCC1,inactive
10,COc1ccc(C(=O)NCC2(N(C)C)CCCCC2)cc1,inactive
11,CCN1CCCC(OC(=O)C2(O)c3ccccc3C=Cc3ccccc32)C1 (centres undefined),inactive
12,Cc1cc(C(=O)NCC2(N3CCCCC3)CCCCC2)ccc1[N+](=O)[O-],inactive
13,O=C(NCC1(N2CCCCC2)CCCCC1)c1cccc(Br)c1,inactive
14,C=CCN1CCN(CCOC(=O)C(O)(c2ccccc2)c2ccccc2)CC1,inactive
15,O=C(NCC1(N2CCCCC2)CCCCC1)c1cc(F)c(F)cc1Cl,inactive
16,Cc1ccccc1C(=O)NCC1(N2CCCCC2)CCCCC1,inactive
17,CN(C)c1ccc(C(=O)NCC2(N(C)C)CCCCC2)cc1,inactive
18,CN(C)C1CCCC1OC(=O)C(O)(c1ccccc1)c1ccccc1 (centres undefined),inactive
19,Cc1ccc(C(=O)NCC2(N3CCCCC3)CCCCC2)cc1,inactive
20,CCN(CC)CC(C)C(C)OC(=O)C(O)(c1ccccc1)c1ccccc1 (centres undefined),inactive
21,COc1cc(SC)ccc1C(=O)NCC1(N(C)C)CCCCC1,inactive
22,CC(C)N1C(=O)CC2(CCN(CCOC(=O)C(O)(c3ccccc3)c3ccccc3)CC2)C1=O,inactive
23,CN1[C@@H]2CC[C@H]1CC(OC(=O)C(O)(c1ccccc1)c1ccccc1)C2 (some centres undefined),inactive
24,O=C(NCC1(N2CCCCC2)CCCCC1)c1cc([N+](=O)[O-])ccc1Cl,inactive
